Source: patent US6365591B1, “Isoxazolecarboxamide derivatives” (Recordati, S.A., Chemical and Pharmacueticals Company, priority 1999, dated 2002)

Tests used:
[1] = molecular target: T1, recombinant α1a-adrenoceptor (UniProt P35348); details: read-out: Affinity for recombinant α1a-adrenoceptor subtype, Ki; [3H]prazosin, membranes of transfected cells; mean Ki
T1 sequence (P35348 1-466): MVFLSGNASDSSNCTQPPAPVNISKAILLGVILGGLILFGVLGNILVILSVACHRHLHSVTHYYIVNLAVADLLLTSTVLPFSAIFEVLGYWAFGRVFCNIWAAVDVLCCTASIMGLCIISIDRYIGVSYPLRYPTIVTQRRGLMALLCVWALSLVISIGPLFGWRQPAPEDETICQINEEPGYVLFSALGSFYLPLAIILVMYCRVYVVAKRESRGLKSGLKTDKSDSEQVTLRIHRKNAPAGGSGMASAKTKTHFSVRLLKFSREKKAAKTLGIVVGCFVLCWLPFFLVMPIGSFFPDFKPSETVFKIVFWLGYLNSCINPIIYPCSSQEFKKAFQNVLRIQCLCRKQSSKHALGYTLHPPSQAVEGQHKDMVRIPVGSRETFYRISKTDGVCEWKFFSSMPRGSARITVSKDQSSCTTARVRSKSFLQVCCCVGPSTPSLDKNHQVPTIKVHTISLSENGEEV

[2] = molecular target: recombinant α1d-adrenoceptor (UniProt P25100); details: read-out: Affinity for recombinant α1d-adrenoceptor subtype, Ki; [3H]prazosin, membranes of transfected cells; mean Ki
[3] = system: prostatic urethral pressure (hypogastric-nerve stimulation); details: anaesthetised dogs, i.v.; data from Leonardi et al. 1997; cited from earlier work

Row | Ki [1] [nM] | Ki [2] [nM] | SMILES | UP ID50 HYP: dose inhibiting by 50% the urethral contractions induced by hypogastric-nerve stimulation [3] [mg/kg]
1 | 0.65 | 1.51 | COc1ccccc1N1CCN(CCCNC(=O)c2cccc3c(=O)c(C)c(-c4ccccc4)oc23)CC1 [Compound A] | 
2 |  |  | COc1cc2nc(N3CCN(C(=O)c4ccco4)CC3)nc(N)c2cc1OC [prazosin] | 0.01
